# Numbers after ± are expanded uncertainties.
# Assay: molar enthalpy of vaporization or sublimation
# Conditions: 298.15 K; Crystal; DSC
compound,measurement,value
"c1ccc2cccc-2cc1 [bicyclo[5.3.0]deca-2,4,6,8,10-pentaene]",molar enthalpy,17.5 ± 0.55 kcal/mol

# Source: the NIST ThermoML archive (doi:10.1016/j.tca.2014.05.033)
